Measured values published in paper PMC9090141 (Pediatric blood & cancer, 2021).

Tested on: pediatric patients with recurrent or refractory solid and CNS tumors
Settings: IV on day 1 and 15 of a 28-day cycle

COc1cccc(OCCCN)c1-c1cc(Nc2cnc(C#N)cn2)n[nH]1 [prexasertib, Prexasertib mesylate monohydrate]
recommended Phase 2 dose (RP2D): 150 mg/m^2

Structures can show the parent of a compound that is named as a salt.
